The structures appear in SMILES notation.

By UniProt entry, the sequences of proteins in these tests, tags left out.
UniProt P09619, whole entry: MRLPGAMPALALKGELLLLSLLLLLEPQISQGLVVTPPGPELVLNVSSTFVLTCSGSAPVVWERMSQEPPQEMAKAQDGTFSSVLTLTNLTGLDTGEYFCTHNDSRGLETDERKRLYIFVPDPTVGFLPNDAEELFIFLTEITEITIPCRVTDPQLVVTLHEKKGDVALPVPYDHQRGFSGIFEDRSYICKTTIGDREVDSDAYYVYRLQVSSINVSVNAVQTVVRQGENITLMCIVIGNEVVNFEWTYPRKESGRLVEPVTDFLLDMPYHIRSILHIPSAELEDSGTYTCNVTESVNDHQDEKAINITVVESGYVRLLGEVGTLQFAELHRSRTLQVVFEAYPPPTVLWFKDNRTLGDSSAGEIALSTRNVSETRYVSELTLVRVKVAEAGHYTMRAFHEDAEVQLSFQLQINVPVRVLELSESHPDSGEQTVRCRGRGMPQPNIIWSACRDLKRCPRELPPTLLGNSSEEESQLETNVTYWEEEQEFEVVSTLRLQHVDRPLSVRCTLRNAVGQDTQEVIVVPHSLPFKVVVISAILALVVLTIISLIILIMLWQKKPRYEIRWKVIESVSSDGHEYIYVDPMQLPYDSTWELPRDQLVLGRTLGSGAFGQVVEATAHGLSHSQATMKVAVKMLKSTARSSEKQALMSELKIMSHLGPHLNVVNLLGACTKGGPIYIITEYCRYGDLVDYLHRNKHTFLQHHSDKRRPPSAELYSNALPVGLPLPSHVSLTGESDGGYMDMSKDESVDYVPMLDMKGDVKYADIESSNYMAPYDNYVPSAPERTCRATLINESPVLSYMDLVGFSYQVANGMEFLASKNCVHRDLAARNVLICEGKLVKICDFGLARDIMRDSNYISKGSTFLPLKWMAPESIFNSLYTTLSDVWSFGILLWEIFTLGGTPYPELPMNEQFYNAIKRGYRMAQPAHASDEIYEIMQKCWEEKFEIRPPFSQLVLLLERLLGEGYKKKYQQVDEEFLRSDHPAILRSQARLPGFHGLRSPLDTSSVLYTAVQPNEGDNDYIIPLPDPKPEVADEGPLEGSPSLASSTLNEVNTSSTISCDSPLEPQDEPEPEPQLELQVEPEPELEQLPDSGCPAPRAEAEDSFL

Three compounds from BindingDB's records for doi:10.1016/j.bmc.2009.08.044 (Duquesne University, 2009) can be followed below.

Assay [1] deals with T1, Dihydrofolate reductase (Pneumocystis carinii, UniProt P16184).
T1 sequence (P16184 whole entry): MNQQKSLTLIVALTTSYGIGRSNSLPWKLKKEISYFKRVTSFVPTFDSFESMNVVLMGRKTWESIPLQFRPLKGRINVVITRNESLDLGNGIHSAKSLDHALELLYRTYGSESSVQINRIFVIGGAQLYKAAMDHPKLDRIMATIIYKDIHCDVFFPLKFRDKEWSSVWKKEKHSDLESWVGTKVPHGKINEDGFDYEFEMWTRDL

For assay [2], the target named is Platelet-derived growth factor receptor beta (Homo sapiens, UniProt P09619). In words: cell-based.

The compound `CCCCC(Cc1coc2nc(N)nc(N)c12)c1ccccc1OC` (racemic) [2,4-diaminofuro[2,3-d]pyrimidine, 11] showed an IC50 in assay [1] of 30.9 µM.
The compound `CCCC(Cc1coc2nc(N)nc(N)c12)c1ccccc1OC` (racemic) [2,4-diaminofuro[2,3-d]pyrimidine, 8] came in with a 50% inhibitory concentration (IC50) in assay [1] of 42.5 µM.
For the compound `CCC/C(=C/c1coc2nc(N)nc(N)c12)c1ccccc1OC` [E/Z ratio=2:1], the half-maximal inhibitory concentration (IC50) in assay [2] turned out to be 17.8 µM.

By IC50 is commonly meant the midpoint of a concentration-inhibition curve. A high value points to a need for much substance.
